We go through one compound from ChEMBL document CHEMBL1145269, “Synthesis and evaluation of urea-based indazoles as melanin-concentrating hormone receptor 1 antagonists for the treatment of obesity” (Bioorg Med Chem Lett, 2005).

Sequences of proteins named here, by UniProt entry; tags and fusion partners are left off. A change or cut given only in a name is not applied to a line headed by its entry.
UniProt Q969V1: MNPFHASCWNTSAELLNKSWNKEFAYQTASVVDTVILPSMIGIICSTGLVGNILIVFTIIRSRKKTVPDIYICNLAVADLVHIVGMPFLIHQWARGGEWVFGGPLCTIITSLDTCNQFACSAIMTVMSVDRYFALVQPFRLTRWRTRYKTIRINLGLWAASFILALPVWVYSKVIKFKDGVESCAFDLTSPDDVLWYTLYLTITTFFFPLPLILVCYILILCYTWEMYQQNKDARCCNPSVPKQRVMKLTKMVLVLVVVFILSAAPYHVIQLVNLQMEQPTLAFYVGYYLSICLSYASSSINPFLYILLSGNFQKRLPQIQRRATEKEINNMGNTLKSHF

Structures are written as SMILES.

Experiment [1] has as its target Melanin-concentrating hormone receptor (Homo sapiens, UniProt Q969V1+Q99705). The experiment can be described thus: Inhibition of Melanin-concentrating hormone (MCH) mediated [Ca2+] release in IMR-32 cells. The experiment is classed as functional, cell-based.
Experiment [2] deals with Melanin-concentrating hormone receptor 1 (Homo sapiens) (UniProt Q99705). The experiment can be described thus: Inhibitory concentration against human Melanin-concentrating hormone receptor 1 expressed in IMR-32 cells using [125I]MCH.

Consider `O=C(Nc1ccc2c(cnn2CCN2CCCC2)c1)NC1CCN(Cc2ccccc2)CC1`, for which the concentration for half-maximal inhibition (IC50) (commonly the concentration at which inhibition is half-maximal) was more than 10000 nM in experiment [1] and 971 nM in experiment [2].
